From paper PMC10544810 (Food & Function, 2023)

What was measured:
LC-MS [1] = assay type: in vivo, human; settings: given as x : 1; plasma versus CSF concentrations
LC-MS [2] = assay type: in vivo, human; settings: individual volunteers, ESI Fig. S4

plasma : CSF ratio (LC-MS [1]): 23 | concentrations detected in plasma (LC-MS [2]): below 1 μM
Substance: Quercetin-3′-glucuronide
